Source: patent publication US9848599B2, “Co-crystals of 3-iodopropynyl butylcarbamate” (priority 2012, dated 2017)

Test: Solubility in water
Conditions: relative to IPBC

Substance	aqueous solubility greater than that of IPBC
Co-Crystal Containing 3-iodopropynyl butylcarbamate and calcium chloride in a 4:1 Molar Ratio [Co-Crystal 4]	approx. 50%
Co-Crystal Containing 3-iodopropynyl butylcarbamate and tetrabutyl ammonium iodide in a 3:1 Molar Ratio [Co-Crystal 3]	approx. 40%
